The record followed here is patent publication US6936585B2, “Corticotropin releasing factor 2 receptor agonists” (priority 2002, dated 2005).

The target of one experiment is T1, CRF2R (Homo sapiens, UniProt Q13324).
T1 sequence (Q13324 1-411): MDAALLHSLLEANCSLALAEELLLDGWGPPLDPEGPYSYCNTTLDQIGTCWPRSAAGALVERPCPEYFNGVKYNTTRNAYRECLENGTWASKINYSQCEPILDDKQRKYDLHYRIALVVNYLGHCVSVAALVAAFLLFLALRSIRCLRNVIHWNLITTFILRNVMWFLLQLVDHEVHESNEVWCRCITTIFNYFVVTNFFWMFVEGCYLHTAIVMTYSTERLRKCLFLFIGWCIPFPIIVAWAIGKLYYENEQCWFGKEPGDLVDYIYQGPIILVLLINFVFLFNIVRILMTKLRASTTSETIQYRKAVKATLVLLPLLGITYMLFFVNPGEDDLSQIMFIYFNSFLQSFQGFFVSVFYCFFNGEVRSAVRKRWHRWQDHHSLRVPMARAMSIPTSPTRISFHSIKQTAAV
In words: CRF2R agonist activation (EC50 / Emax), called comparative CRF binding. The conditions noted are these: for Emax: read-out: CRF2R Emax. In kind it is cell-based. From the text:
(§1) The pharmacological activity and selectivity of the peptides of present invention can be determined using published test procedures. See, e.g, U.S. patent application Ser. No. 09/799,978 (now issued U.S. Pat. No. 6,670,140). Because CRF2R and CRF1R are homologous proteins, it is expected that a certain proportion of agonists for CRF2R will also function as agonists of CRF1R. As discussed above, activation of CRF1R induces activation of the HPA axis since increased corticosteroid production leads to skeletal muscle atrophy. In most cases in which an increase in muscle mass or function is desired, it is not desirable to activate the HPA axis.
(§2) Cell-based assays include the steps of contacting cells which express CRF1R or CRF2R with a peptide of the present invention or control and measuring activation of the CRFR by measuring the expression or activity of components of the CRFR signal transduction pathways.
(§3) For example, after contact with a peptide of the present invention, lysates of the cells can be prepared and assayed for induction of cAMP. cAMP is induced in response to Gαs activation. Because Gαs is activated by receptors other than CRFR and because a test peptide may be exerting its effect through CRFRs or by another mechanism, two control comparisons are relevant for determining whether the peptide increases levels of cAMP via activation of a CRFR. One control compares the cAMP level of cells contacted with the peptide and the cAMP level of cells contacted with a control compound (i.e., the vehicle in which the peptide is dissolved).
(§4) In one example, cAMP induction is measured with the use of DNA constructs containing the cAMP responsive element linked to any of a variety of reporter genes can be introduced into cells expressing CRFRs. Such reporter genes include, but are not limited to, chloramphenicol acetyltransferase (CAT), luciferase, glucuronide synthetase, growth hormone, fluorescent proteins (e.g., Green Fluorescent Protein), or alkaline phosphatase. Following exposure of the cells to the peptide, the level of reporter gene expression can be quantitated to determine the peptide's ability to increase cAMP levels and thus determine the peptide's ability to activate the CRFR.
(§5) In addition to using cells expressing full length CRFRs, cells can be engineered which express CRFRs containing the ligand binding domain of the receptor coupled to, or physically modified to contain, reporter elements or to interact with signaling proteins. For example, a wild type CRFR or CRFR fragment can be fused to a G-protein resulting in activation of the fused G-protein upon agonist binding to the CRFR portion of the fusion protein. […] In addition, alternative pathways for induction of the CRE reporter could be eliminated to reduce basal levels.

Another experiment concerns the target T2, CRF1R (Homo sapiens, UniProt P34998).
T2 sequence (P34998 24-415): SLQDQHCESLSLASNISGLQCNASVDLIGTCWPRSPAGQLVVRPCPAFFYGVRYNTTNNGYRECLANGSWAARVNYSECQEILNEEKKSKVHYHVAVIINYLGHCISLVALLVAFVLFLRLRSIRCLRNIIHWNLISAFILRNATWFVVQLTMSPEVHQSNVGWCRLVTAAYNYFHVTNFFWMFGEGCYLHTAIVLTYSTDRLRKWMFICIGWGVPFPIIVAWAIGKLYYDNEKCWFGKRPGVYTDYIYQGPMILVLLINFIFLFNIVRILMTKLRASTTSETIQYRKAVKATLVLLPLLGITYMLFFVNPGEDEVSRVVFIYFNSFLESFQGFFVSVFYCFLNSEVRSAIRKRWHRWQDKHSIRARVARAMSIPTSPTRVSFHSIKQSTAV
In words: CRF1R agonist activation (EC50 / Emax), called comparative CRF binding. In kind it is cell-based. The conditions noted are these: for EC50: CRF1R EC50; for Emax: read-out: CRF1R Emax.
Text: as §1, §2, §3, §4, §5

Take `CC[C@H](C)[C@H](NC(=O)[C@H](CCCNC(=N)N)NC(=O)[C@H](C)NC(=O)[C@H](CC(C)C)NC(=O)[C@H](CC(C)C)NC(=O)[C@H](CCCNC(=N)N)NC(=O)[C@H](C)NC(=O)[C@H](CC(N)=O)NC(=O)[C@H](CC(N)=O)NC(=O)[C@H](C)NC(=O)[C@H](C)NC(=O)[C@H](CCC(N)=O)NC(=O)[C@H](CCC(N)=O)NC(=O)[C@H](CCCCN)NC(=O)[C@H](CCC(=O)O)NC(=O)[C@H](CCCCN)NC(=O)[C@H](CCC(=O)O)NC(=O)[C@H](CCC(N)=O)NC(=O)[C@H](CCCCN)NC(=O)[C@H](CCC(=O)O)NC(=O)[C@@H](NC(=O)[C@H](CCC(=O)O)NC(=O)[C@@H](NC(=O)[C@@H](NC(=O)[C@H](CCCCN)NC(=O)[C@H](CCCNC(=N)N)NC(=O)[C@H](CC(C)C)NC(=O)[C@H](CC(C)C)NC(=O)[C@H](Cc1c[nH]cn1)NC(=O)[C@H](Cc1ccc(O)cc1)NC(=O)[C@@H]1CCCN1C(=O)[C@@H](NC(=O)[C@H](CC(=O)O)NC(=O)[C@@H](NC(=O)[C@H](CO)NC(=O)[C@@H](NC(=O)[C@@H]1CCCN1C(=O)[C@@H]1CCCN1C(=O)CNC(=O)[C@@H]1CCC(=O)N1)[C@@H](C)CC)[C@@H](C)CC)C(C)C)C(C)C)[C@@H](C)CC)[C@@H](C)CC)C(N)=O` [compound 377]: the values for the EC50 at CRF2R and at CRF1R were 19.3 nM and ≥ 1000 nM, respectively. Moreover, the values for the Emax at CRF2R and at CRF1R were 83% and 25%, respectively.
Consider `CC[C@H](C)[C@H](NC(=O)[C@@H](NC(=O)[C@H](CC(=O)O)NC(=O)[C@H](CC(C)C)NC(=O)[C@H](CC(C)C)NC(=O)[C@H](CC(C)C)NC(=O)[C@H](CCCNC(=N)N)NC(=O)[C@H](CC(N)=O)NC(=O)[C@H](CC(N)=O)NC(=O)[C@H](C)NC(=O)[C@H](C)NC(=O)[C@H](CCC(N)=O)NC(=O)[C@H](CCC(N)=O)NC(=O)[C@H](CCCCN)NC(=O)[C@H](CCC(=O)O)NC(=O)[C@H](CCCCN)NC(=O)[C@H](CCC(=O)O)NC(=O)[C@H](CCC(N)=O)NC(=O)[C@H](CCCCN)NC(=O)[C@H](CCC(=O)O)NC(=O)[C@@H](NC(=O)[C@H](CCC(=O)O)NC(=O)[C@@H](NC(=O)[C@H](CCSC)NC(=O)[C@H](CCCCN)NC(=O)[C@H](CCCNC(=N)N)NC(=O)[C@H](CC(C)C)NC(=O)[C@H](CC(C)C)NC(=O)[C@@H](NC(=O)[C@@H](NC(=O)[C@@H]1CCCN1C(=O)[C@H](CC(C)C)NC(=O)[C@H](CC(=O)O)NC(=O)[C@@H](NC(=O)[C@H](CO)NC(=O)[C@@H](NC(=O)[C@@H]1CCCN1C(=O)[C@@H]1CCCN1C(=O)CNC(=O)[C@@H]1CCC(=O)N1)[C@@H](C)CC)[C@@H](C)CC)[C@@H](C)CC)[C@@H](C)O)[C@@H](C)CC)[C@@H](C)CC)[C@@H](C)O)C(N)=O` [compound 24], for which the Emax turned out to be 100% on CRF2R and 18% at CRF1R.
The corresponding values for `CC[C@H](C)[C@H](NC(=O)[C@H](CCCNC(=N)N)NC(=O)[C@H](C)NC(=O)[C@H](CC(C)C)NC(=O)[C@H](CC(C)C)NC(=O)[C@H](CCCNC(=N)N)NC(=O)[C@H](C)NC(=O)[C@H](CC(N)=O)NC(=O)[C@H](CC(N)=O)NC(=O)[C@H](C)NC(=O)[C@H](C)NC(=O)[C@H](CCC(N)=O)NC(=O)[C@H](CCC(N)=O)NC(=O)[C@H](CCCCN)NC(=O)[C@H](CCC(=O)O)NC(=O)[C@H](CCCCN)NC(=O)[C@H](CCC(=O)O)NC(=O)[C@H](CCC(N)=O)NC(=O)[C@H](CCCCN)NC(=O)[C@H](CCC(=O)O)NC(=O)[C@@H](NC(=O)[C@H](CCC(=O)O)NC(=O)[C@@H](NC(=O)[C@@H](NC(=O)[C@H](CCCCN)NC(=O)[C@H](CCCNC(=N)N)NC(=O)[C@H](CC(C)C)NC(=O)[C@H](CC(C)C)NC(=O)[C@H](Cc1ccc(O)cc1)NC(=O)[C@@H](NC(=O)[C@@H]1CCCN1C(=O)[C@@H](NC(=O)[C@H](CC(=O)O)NC(=O)[C@@H](NC(=O)[C@H](CO)NC(=O)[C@@H](NC(=O)[C@@H]1CCCN1C(=O)[C@@H]1CCCN1C(=O)CNC(=O)[C@@H]1CCC(=O)N1)[C@@H](C)CC)[C@@H](C)CC)C(C)C)[C@@H](C)CC)C(C)C)[C@@H](C)CC)[C@@H](C)CC)C(N)=O` [compound 379] are 94% and 8%.
Turning to `CC[C@H](C)[C@H](NC(=O)[C@@H](NC(=O)[C@H](CC(=O)O)NC(=O)[C@H](CC(C)C)NC(=O)[C@H](CC(C)C)NC(=O)[C@H](CC(C)C)NC(=O)[C@H](CCCNC(=N)N)NC(=O)[C@H](CC(N)=O)NC(=O)[C@H](CC(N)=O)NC(=O)[C@H](C)NC(=O)[C@H](C)NC(=O)[C@H](CCC(N)=O)NC(=O)[C@H](CCC(N)=O)NC(=O)[C@H](CCCCN)NC(=O)[C@H](CCC(=O)O)NC(=O)[C@H](CCCCN)NC(=O)[C@H](CCC(=O)O)NC(=O)[C@H](CCC(N)=O)NC(=O)[C@H](CCCCN)NC(=O)[C@H](CCC(=O)O)NC(=O)[C@@H](NC(=O)[C@H](CCC(=O)O)NC(=O)[C@@H](NC(=O)[C@H](CCSC)NC(=O)[C@H](CCCCN)NC(=O)[C@H](CCCNC(=N)N)NC(=O)[C@H](CC(C)C)NC(=O)[C@H](CC(C)C)NC(=O)[C@H](CCC(N)=O)NC(=O)[C@@H](NC(=O)[C@@H]1CCCN1C(=O)[C@H](CC(C)C)NC(=O)[C@H](CC(=O)O)NC(=O)[C@@H](NC(=O)[C@H](CO)NC(=O)[C@@H](NC(=O)[C@@H]1CCCN1C(=O)[C@@H]1CCCN1C(=O)CNC(=O)[C@@H]1CCC(=O)N1)[C@@H](C)CC)[C@@H](C)CC)[C@@H](C)CC)[C@@H](C)CC)[C@@H](C)CC)[C@@H](C)O)C(N)=O` [compound 78], the figures for the EC50 on CRF2R and on CRF1R were 24.6 nM and > 100 nM, respectively. Besides, the maximal effect (Emax) on CRF2R was 78%; at CRF1R, 6%.
Turning to `CC[C@H](C)[C@H](NC(=O)[C@@H](NC(=O)[C@H](CC(=O)O)NC(=O)[C@H](CC(C)C)NC(=O)[C@H](CC(C)C)NC(=O)[C@H](CC(C)C)NC(=O)[C@H](CCCNC(=N)N)NC(=O)[C@H](CC(N)=O)NC(=O)[C@H](CC(N)=O)NC(=O)[C@H](C)NC(=O)[C@H](C)NC(=O)[C@H](CCC(N)=O)NC(=O)[C@H](CCC(N)=O)NC(=O)[C@H](CCCCN)NC(=O)[C@H](CCC(=O)O)NC(=O)[C@H](CCCCN)NC(=O)[C@H](CCC(=O)O)NC(=O)[C@H](CCC(N)=O)NC(=O)[C@H](CCCCN)NC(=O)[C@H](CCC(=O)O)NC(=O)[C@@H](NC(=O)[C@H](CCC(=O)O)NC(=O)[C@@H](NC(=O)[C@H](CCSC)NC(=O)[C@H](CCCCN)NC(=O)[C@H](CCCNC(=N)N)NC(=O)[C@H](CC(C)C)NC(=O)[C@H](CC(C)C)NC(=O)[C@@H](NC(=O)[C@H](CCC(N)=O)NC(=O)[C@@H]1CCCN1C(=O)[C@H](CC(C)C)NC(=O)[C@H](CC(=O)O)NC(=O)[C@@H](NC(=O)[C@H](CO)NC(=O)[C@@H](NC(=O)[C@@H]1CCCN1C(=O)[C@@H]1CCCN1C(=O)CNC(=O)[C@@H]1CCC(=O)N1)[C@@H](C)CC)[C@@H](C)CC)C(C)C)[C@@H](C)CC)[C@@H](C)CC)[C@@H](C)O)C(N)=O` [compound 197], the Emax at CRF2R worked out at 94%.
